What was measured:
[1] = test system: serine hydrolases (SHs) in BW5147-derived murine T-cell hybridoma cells; test: Competitive ABPP-SILAC in mouse T-cells (in situ), SH-wide profile; assay type: cell-based; details: 3 nM inhibitor, 4 h
Experimental: Briefly, mouse T-cells were cultured under ‘light’ (with ^12C6^14N2-lysine and ^12C6^14N4-arginine containing medium) and ‘heavy’ conditions (with ^13C6^15N2-lysine and ^13C6^15N4-arginine). The light and heavy cells were treated with inhibitor and DMSO, respectively, and then harvested, lysed, separated into soluble and membrane fractions, and treated with FP-biotin (5 μM, 90 min). Light and heavy fractions were then mixed, enriched with avidin, digested on-bead with trypsin, and analyzed by LC-MS/MS using an LTQ-Orbitrap instrument. Light and heavy signals were quantified from parent ion peaks (MS1) and the corresponding proteins identified from product ion profiles (MS2) using the SEQUEST search algorithm. The depicted bar graphs represent the average ratios of light/heavy tryptic peptides for each of the 46 SHs identified in mouse T-cells (FIG. 2d). While in situ treatment with carbamate AA38-3 inhibited three SHs (ABHD6, ABHD11, and FAAH), 15 SHs were inhibited by triazole urea AA26-9 (including the aforementioned three targets of AA38-3) (FIG. 2d). […] Taking into account the predicted molecular masses of AA26-9-inhibited and AA38-3-inhibited SHs, as well as their sensitivity to one or both inhibitors, allowed for confident assignment of many of the SH signals on ABPP gels (FIG. 2b).

[2] = test system: serine hydrolases detected in the Neuro2A proteome; test: ABPP-SILAC in Neuro2A cells, other serine hydrolases; details: about 4 hours; 25 nM KT172 and KT195, 50 nM KT109

COCC1CCCCN1C(=O)n1ncc(C(O)(c2ccccc2)c2ccccc2)n1 (centres unmarked) [AA44-2]
effect on other SHs detected in T-cells [1]: not affecting any of the other 40+ SHs detected in T-cells

CC(C)CC(O)(CC(C)C)c1cnn(C(=O)N2CCCC2)n1 [AA74-1]
effect on other SHs detected in T-cells [1]: not affecting any of the other 40+ SHs detected in T-cells

O=C(N1CCCCC1Cc1ccccc1)n1cc(-c2ccc(-c3ccccc3)cc2)nn1 (centres unmarked) [KT109]
activity against other serine hydrolases [2]: negligible activity against any other serine hydrolases detected in the Neuro2A proteome with the exception of ABHD6

COc1ccccc1-c1ccc(-c2cn(C(=O)N3CCCCC3Cc3ccccc3)nn2)cc1 (centres unmarked) [KT172]
activity against other serine hydrolases [2]: negligible activity against any other serine hydrolases detected in the Neuro2A proteome with the exception of ABHD6

COc1ccc(-c2ccc(-c3cn(C(=O)N4CCCCC4c4ccccc4)nn3)cc2)cc1 (centres unmarked) [KT195]
activity against other serine hydrolases [2]: no activity against other serine hydrolase detected in the Neuro2A proteome, including DAGLB

Source: patent US9108930B2, “N1- and N2-carbamoyl-1,2,3-triazole serine hydrolase inhibitors and methods” (The Scripps Research Institute, priority 2011, dated 2015)
